# Test results from patent publication US20060135415A1, “Immunomodulation and effect on cell processes relating to serotonin family receptors and the blood-brain barrier” (priority 2002, published 2006).
# Test system: RPMI 8226 multiple myeloma cells
# Assay: RPMI 8226 cell viability and proliferation (trypan blue, MTT, 3H-thymidine)
# Format: cell-based, human
# Details: 3H-thymidine uptake, drug titration (FIGS. 19-25, 31, 32)
# Description: The human plasmacytoma (multiple myeloma) cell line, RPMI 8226 (American Type Culture Collection, Manassas, Va.), was cultured in RPMI 1640 supplemented with 10 mM HEPES, 1 mM sodium pyruvate, 4.5 g/L glucose, 1.5 g/L bicarbonate and 20% FBS (non-heat inactivated).
# Cell proliferation was assayed by three methods—Trypan Blue Exclusion was used to quantify the number of viable cells in culture; 3-(4,5-dimethylthiazol-2-yl)-2,5-diphenyl tetrazolium bromide (MTT) reduction was used to assay mitochondrial activity (and thus cell viability); and ^3H-Thymidine uptake was employed to assay for active DNA synthesis.
# Three separate indicators of cell proliferation were employed to study the effects of 5-HT receptor modulating agents on the human multiple myeloma cell line, RPMI 8226. Cells were plated at 4 separate densities and were treated with LY53587 (an antagonist of the 5-HT2A/2B/2C receptors) at a range of concentrations. The exclusion of trypan blue dye was used as an indicator of cell viability. Cell numbers were then plotted against the concentration of drug added.
# MTT reduction was also used as an indicator of cell viability (more specifically, mitochondrial activity). Absorbance values at OD570 were then plotted against drug concentration. […]
compound,measurement,setting,value
OCCN1CCN(CCCN2c3ccccc3Sc3ccc(C(F)(F)F)cc32)CC1 [Fluphenazine],growth / proliferation of RPMI 8226 cells,,"inhibits T cell responses, as well as the growth of multiple myeloma cell lines"
same,growth / proliferation of RPMI 8226 cells,listed as fluphenazine,clear dose-response curve
